Measured values published in PubChem BioAssay AID602313 (National Center for Advancing Translational Sciences (NCATS), 2012).
The list shows a part of the results, in another mix than the full data. Active and inactive are the calls of the source. Calls come from the whole dose curve; as a rule, active = well fitted inhibition curve with a large enough effect; inconclusive = small, poorly fitted or top-dose-only effect; inactive = flat fitted curve, though single readings scatter.

Assay: qHTS for Inhibitors of Vif-A3F Interactions: qHTS; note: % of control where 0% means no effect; nearly all actives have a fitted effect of over 65% in size
Conditions: HeLa A3F-eYFP + Vif (tagged APOBEC3F with the HIV-1 protein that degrades it), YFP fluorescence increase; at 46.1 µM (top of the series)
Text: The recent discovery and characterization of host restriction factors, which provide a potent defense to invading retroviruses, has provided new targets for antiviral drug development. APOBEC3G (A3G) and APOBEC3F (A3F) are potent cytidine deaminases that block HIV-1 replication; HIV-1 expresses the Vif protein, which counteracts A3G and A3F by binding to them and inducing their proteasomal degradation. The Vif-A3G and Vif-A3F interactions provide two potential targets for development of small molecules which can interfere with the ability of Vif to degrade A3G or A3F. […] To identify inhibitors that can interfere with Vif mediated degradation of A3G and A3F, we have developed Hela cell lines that stably express A3G or A3F tagged with eYFP at the C-terminal end (A3G-eYFP or A3F-eYFP, respectively) and Vif. In the absence of an inhibitor, Vif induces degradation of A3G-eYFP and A3F-eYFP, and the cells are not fluorescent. In the presence of an inhibitor, it is expected that Vif will be unable to degrade A3G-eYFP and/or A3F-eYFP, resulting in an increase in yellow fluorescence. In this assays Vif A3F was screened against the Molecular Library Small Molecule Repository (MLSMR). […]
5 uL of 700 cells/well of A3F-YFP cells are dispensed into black, clear bottom plates. […] The plates are incubated overnight at 37 deg C and then read on the TTP Acumen (Ex 488/ Em 500-530).

SMILES	activity, negative = active
CCC(=O)N(c1ccccc1)C1(COC)CCN(CCn2nnn(CC)c2=O)CC1	inactive: 1.07%
CCC(=O)N(c1ccccc1)C1(COC)CCN(CCc2cccs2)CC1	inactive: -0.558%
